How the values were obtained:
full length AR = assay: LNCaP or AD1 degradation (full length AR, Western blot); type: cell-based
[1] = SARD compound serum concentrations in Hershberger rats (LC-MS/MS)

Row | Structure (SMILES) | Degradation (% at 3 μm) (full length AR) [%] | Serum Conc. ([1]; Table 4, rats, 20 mg/kg) [nM] | Serum Conc. ([1]; Table 2, rats, 20 mg/kg daily for 13 days) [nM]
1 | C[C@](O)(Cn1cc(Cl)cn1)C(=O)Nc1ccc(C#N)c(C(F)(F)F)c1 [Compound 1049] | 42 | – | –
2 | C[C@](O)(Cn1cc(Cl)c(Br)n1)C(=O)Nc1ccc(C#N)c(C(F)(F)F)c1 [Compound 1066] | – | 19 | –
3 | C[C@](O)(Cn1cc(Br)c(F)n1)C(=O)Nc1ccc(C#N)c(C(F)(F)F)c1 [Compound 1058, (S)-3-(4-Bromo-3-fluoro-1H-pyrazol-1-yl)-N-(4-cyano-3-(trifluoromethyl)phenyl)-2-hydroxy-2-methylpropanamide] | – | 404 | 404
4 | C[C@](O)(Cn1cc(F)cn1)C(=O)Nc1ccc(C#N)c(C(F)(F)F)c1 [Compound 1002] | – | 33 | –

From patent publication US20210196678A1, “SELECTIVE ANDROGEN RECEPTOR DEGRADER (SARD) LIGANDS AND METHODS OF USE THEREOF” (University of Tennessee Research Foundation, priority 2018, published 2021)
